From PubChem BioAssay AID1415 (NMMLSC, 2008)
This is a selection; strong and weak results do not stand in their true shares. Some tests of the compounds listed are not included; inactive here does not mean inactive elsewhere. The source made the active and inactive calls. Rule as the data show it: active = binding response below about 49% or above about 150%; inactive = in between.

By UniProt entry, the sequences of proteins in these tests, tags left out.
UniProt P09471, whole entry: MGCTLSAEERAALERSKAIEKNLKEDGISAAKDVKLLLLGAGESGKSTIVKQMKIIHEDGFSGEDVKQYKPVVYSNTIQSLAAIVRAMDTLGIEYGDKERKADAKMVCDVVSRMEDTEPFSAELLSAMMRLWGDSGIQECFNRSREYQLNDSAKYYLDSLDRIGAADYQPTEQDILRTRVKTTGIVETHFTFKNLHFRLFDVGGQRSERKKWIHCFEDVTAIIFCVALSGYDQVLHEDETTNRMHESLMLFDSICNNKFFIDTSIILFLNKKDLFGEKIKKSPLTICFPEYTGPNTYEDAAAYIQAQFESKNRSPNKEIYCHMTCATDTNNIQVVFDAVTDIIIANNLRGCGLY

target: Guanine nucleotide-binding protein G(o) subunit alpha (Homo sapiens) (UniProt P09471); assay: RGS4-Galphao interaction inhibitors and enhancers – biochemical, multiplexed bead flow cytometry, primary screen (AID 1415); conditions: at 10 µM, actives lie on both sides;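 also: fluorescent Galphao activated with aluminum fluoride binding bead-coupled RGS4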

| Structure (SMILES) | binding response (% of control) |
| --- | --- |
| COc1cccc(C(=O)NCC2(N3CCCCC3)CCCCC2)c1 | inactive: 99.1% |
| O=C(OC1CN2CCC1CC2)C(CO)(c1ccccc1)c1ccccc1 (stereo unspecified) | inactive: 100% |
| COc1ccc(Br)c(C(=O)NCC2(N3CCCCC3)CCCCC2)c1 | inactive: 99.1% |
| CN(C)c1cccc(C(=O)NCC2(N(C)C)CCCCC2)c1 | inactive: 98.8% |
| O=C(NCC1(N2CCCCC2)CCCCC1)c1cc([N+](=O)[O-])ccc1Cl | inactive: 105% |
| CC(C)N1C(=O)CC2(CCN(CCOC(=O)C(O)(c3ccccc3)c3ccccc3)CC2)C1=O | inactive: 96.9% |
| CCN(CC)CC(C)C(C)OC(=O)C(O)(c1ccccc1)c1ccccc1 (stereo unspecified) | inactive: 96.5% |
| Cc1ccccc1C(=O)NCC1(N2CCCCC2)CCCCC1 | inactive: 108% |
| CN(C)C1CCCC1OC(=O)C(O)(c1ccccc1)c1ccccc1 (stereo unspecified) | inactive: 101% |
| C=CCN1CCN(CCOC(=O)C(O)(c2ccccc2)c2ccccc2)CC1 | inactive: 102% |
| CCN1CCCC(OC(=O)C2(O)c3ccccc3C=Cc3ccccc32)C1 (stereo unspecified) | inactive: 117% |
